Results as given in PubChem BioAssay AID2690 (NMMLSC, 2010).
The entries are a selection whose mix differs from that of the whole data set. Active and inactive are the calls of the source.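 How the source made its calls: active means superoxide response under a set limit, about three screen SD below normal (cut at about 65% in these data); inactive means the rest.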

Assay: yeast aging ROS inhibitors as calorie-restriction mimetics – HTS, primary screen (AID 2690);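 further: yeast aged for seven days with compound at 30 °C before DHE staining; 100% = average MFI of all compound-treated wells on the plate with controls excluded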
Settings: S. cerevisiae aged cells, superoxide DHE fluorescence; at 10 µM; stronger effect = lower value

SMILES | superoxide response (% of plate mean)
CSc1ccccc1C(=O)NCC1(N2CCCCC2)CCCCC1 | inactive: 96.4%
O=C(NCC1(N2CCCCC2)CCCCC1)c1ccc(=O)[nH]c1 | inactive: 101%
O=C(NCC1(N2CCCCC2)CCCCC1)c1cccs1 | inactive: 103%
COc1ccc(C(=O)NCC2(N3CCCCC3)CCCCC2)cc1 | inactive: 104%
CC(C)(C)OC(=O)N1CCC(N(C(=O)c2ccccc2)c2ccc(F)cc2)CC1 | inactive: 103%
COc1ccc(C(=O)NCC2(N3CCCCC3)CCCCC2)c(OC)c1OC | inactive: 95.8%
CCOC(=O)N1CCC(Nc2ccc(OC)cc2)CC1 | inactive: 88.8%
N#CC1(Nc2ccccc2)CCN(Cc2ccccc2)CC1 | inactive: 97.7%
O=C(NCC1(N2CCCCC2)CCCCC1)c1ccc(Cl)s1 | inactive: 86.5%
O=C(OC1CN2CCC1CC2)C1c2ccccc2Oc2ccccc21 (stereo unspecified) | inactive: 98.1%
COc1ccc(Cl)cc1C(=O)NCC1(N2CCOCC2)CCCCC1 | inactive: 88.9%
O=C(NCC1(N2CCOCC2)CCCCC1)c1cc2ccccc2o1 | inactive: 89.9%
O=C(NCC1(N2CCCCC2)CCCCC1)c1ccc(Cl)nc1 | inactive: 107%
Cc1cc(C)cc(N(C(=O)c2ccccc2)C2CCN(C(=O)OC(C)(C)C)CC2)c1 | inactive: 94.8%
O=C(NCC1(N2CCCCC2)CCCCC1)c1ccc(F)cc1 | inactive: 104%
CCOC(=O)N1CCC(Nc2ccc(F)cc2)CC1 | inactive: 101%
COc1ccc(NC2CCN(CCc3ccccc3)CC2)c(OC)c1 | inactive: 134%
CCOc1ccc(C)cc1CN(CCCl)CCCl | inactive: 102%
CCOC(=O)N1CCC(Nc2cccc(C)c2)CC1 | inactive: 102%
COc1cc(C(=O)NCC2(N(C)C)CCCCC2)ccc1OC(F)F | inactive: 105%
Cc1ccc(OCC(C)C)c(CN(CCCl)CCCl)c1 | inactive: 76.6%
O=C(NCC1(N2CCCCC2)CCCCC1)c1cccc([N+](=O)[O-])c1 | inactive: 98%

SMILES | superoxide response (% of plate mean)
CCN1CCC(Nc2ccc(Cl)cc2)CC1 | inactive: 110%
N#CC1(Nc2ccccc2)CCN(CCc2ccccc2)CC1 | inactive: 104%
O=C(NCC1(N2CCCCC2)CCCCC1)c1ccc(OC(F)F)cc1 | inactive: 96.4%
COc1ccc(NC2CCN(C(=O)OC(C)(C)C)CC2)cc1 | inactive: 91.8%
CN1CCN(CCOC(=O)C(O)(c2ccccc2)c2ccccc2)CC1 | inactive: 105%
O=C(NCC1(N2CCOCC2)CCCCC1)c1cc(=O)[nH]c2ccccc12 | inactive: 93.8%
COc1cc(C(=O)NCC2(N3CCCCC3)CCCCC2)ccc1OC(F)F | inactive: 91.1%
O=C(NCC1(N2CCCCC2)CCCCC1)c1cccc(C(F)(F)F)c1 | inactive: 96.9%
COc1cc(OC)c(C(=O)NCC2(N(C)C)CCCCC2)cc1OC | inactive: 70.5%
O=C(NCC1(N2CCOCC2)CCCCC1)c1cc(F)c(F)cc1Cl | inactive: 103%
COc1ccc(CN(CCCl)CCCl)cc1Cl | inactive: 79.4%
CN(C)c1cccc(C(=O)NCC2(N3CCCCC3)CCCCC2)c1 | inactive: 106%
CC(C)c1ccc(NC2CCN(C(=O)OC(C)(C)C)CC2)cc1 | inactive: 90.8%
CCCOc1ccc(C(=O)NCC2(N(C)C)CCCCC2)cc1OC | inactive: 94.2%
CN1CCC(Nc2cccc(F)c2)CC1 | inactive: 124%
O=C(NCC1(N2CCCCC2)CCCCC1)c1cncc(Br)c1 | inactive: 71.6%
COc1ccc(C(=O)NCC2(N3CCOCC3)CCCCC2)cc1OC | inactive: 101%
O=C(NCC1(N2CCOCC2)CCCCC1)c1cc(Br)ccc1Cl | inactive: 107%
COc1cc(C(=O)NCC2(N3CCOCC3)CCCCC2)cc(OC)c1C | inactive: 115%
CCc1cc(C(=O)NCC2(N3CCCCC3)CCCCC2)sc1C | inactive: 80.6%
O=C(OC1CN2CCC1CC2)C1c2ccccc2C=Cc2ccccc21 (stereo unspecified) | inactive: 75.4%
N/C(=N\O)c1c(N)no[n+]1[O-] | inactive: 117%

SMILES | superoxide response (% of plate mean)
CCOC(=O)N1CCC(Nc2ccc(C)cc2)CC1 | inactive: 107%
CC(C)(C)OC(=O)N1CCC(N(C(=O)c2ccccc2)c2ccc(Cl)cc2)CC1 | inactive: 101%
N#Cc1ccc(C(=O)NCC2(N3CCCCC3)CCCCC2)cc1 | inactive: 107%
c1ccc(CN2CCC(Nc3ccccc3)CC2)cc1 | inactive: 86.7%
CCCN1CCC(Nc2cc(OC)cc(OC)c2)CC1 | inactive: 98%
CN(C)C1(CNC(=O)c2cccc(C#N)c2)CCCCC1 | inactive: 100%
Cc1ccc(C(=O)NCC2(N3CCCCC3)CCCCC2)o1 | inactive: 93.9%
Fc1ccccc1NC1CCN(Cc2ccccc2)CC1 | inactive: 111%
COc1cc(OC)cc(C(=O)NCC2(N3CCCCC3)CCCCC2)c1 | inactive: 111%
O=C(NCC1(N2CCCCC2)CCCCC1)c1ccco1 | inactive: 138%
CN(C)c1ccc(C(=O)NCC2(N3CCCCC3)CCCCC2)cc1 | inactive: 95.1%
CCN1CCC(Nc2cccc(F)c2)CC1 | inactive: 105%
CCCOc1ccc(C(=O)NCC2(N(C)C)CCCCC2)cc1 | inactive: 106%
CC(C)(C)OC(=O)N1CCC(Nc2ccccc2)CC1 | inactive: 96.4%
O=C(O)C1(Nc2ccccc2)CCN(Cc2ccccc2)CC1 | inactive: 103%
CCOc1ncccc1C(=O)NCC1(N2CCOCC2)CCCCC1 | inactive: 99.9%
CN1CCC(Nc2ccc(F)c(Cl)c2)CC1 | inactive: 102%
CCCOc1ccc(C)cc1CN(CCCl)CCCl | inactive: 90.6%
CN1CCC(Nc2ccc(Cl)cc2)CC1 | inactive: 100%
CCC(CO)(C(=O)OC1CN2CCC1CC2)c1ccccc1 (stereo unspecified) | inactive: 90.2%
COc1cccc(C(=O)N(c2cc(C)cc(C)c2)C2CCN(C(=O)OC(C)(C)C)CC2)c1 | inactive: 111%
COc1cc(OC)cc(C(=O)NCC2(N3CCOCC3)CCCCC2)c1 | inactive: 95.5%
